Data taken from ChEMBL document CHEMBL1129738, “3-Aryl-1,2-diacetamidopropane derivatives as novel and potent NK-1 receptor antagonists” (J Med Chem, 1996).

Amino acid sequences for entries named in this document (tags omitted).
UniProt P16177, whole entry: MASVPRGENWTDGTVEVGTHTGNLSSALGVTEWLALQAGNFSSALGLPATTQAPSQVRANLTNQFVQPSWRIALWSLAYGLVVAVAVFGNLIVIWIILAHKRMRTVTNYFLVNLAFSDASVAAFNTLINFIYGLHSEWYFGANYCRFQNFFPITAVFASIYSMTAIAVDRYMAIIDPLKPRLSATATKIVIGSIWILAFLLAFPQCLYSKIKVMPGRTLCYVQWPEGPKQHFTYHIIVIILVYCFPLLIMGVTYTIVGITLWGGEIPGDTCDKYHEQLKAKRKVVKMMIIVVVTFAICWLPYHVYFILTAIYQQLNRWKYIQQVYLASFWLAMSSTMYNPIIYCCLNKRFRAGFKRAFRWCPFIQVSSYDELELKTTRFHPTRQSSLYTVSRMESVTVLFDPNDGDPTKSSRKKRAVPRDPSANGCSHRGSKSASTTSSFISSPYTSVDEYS
UniProt P79218, whole entry: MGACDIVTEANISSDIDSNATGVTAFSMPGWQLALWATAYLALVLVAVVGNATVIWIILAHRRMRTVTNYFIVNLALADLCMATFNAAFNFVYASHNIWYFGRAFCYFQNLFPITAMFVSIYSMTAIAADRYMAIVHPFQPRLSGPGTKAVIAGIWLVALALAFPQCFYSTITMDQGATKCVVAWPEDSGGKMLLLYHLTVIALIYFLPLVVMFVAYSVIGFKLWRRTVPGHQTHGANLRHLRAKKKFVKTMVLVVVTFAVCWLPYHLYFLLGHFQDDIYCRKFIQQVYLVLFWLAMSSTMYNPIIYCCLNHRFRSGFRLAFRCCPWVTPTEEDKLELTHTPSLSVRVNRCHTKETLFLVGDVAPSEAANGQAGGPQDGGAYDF

Legend:
[1] = molecular target: Neuromedin-K receptor (Rattus norvegicus) (UniProt P16177)
[2] = molecular target: Substance-K receptor (Oryctolagus cuniculus) (UniProt P79218)

COc1ccccc1CN(C[C@H](Cc1c[nH]c2ccccc12)NC(=O)CN1CCN(c2ccccc2)CC1)C(C)=O
pA2 [1]: inactive

COc1ccccc1CN(C[C@@H](Cc1c[nH]c2ccccc12)NC(=O)CN1CCN(c2ccccc2)CC1)C(C)=O
pA2 [1]: inactive
pA2 [2]: inactive

Activity calls are given as the source filed them. The calls are words filed in the database; no cut-off is given here.
